The assay deals with B16. In words: Antitumor activity against mouse B16 cells allografted in BDF mouse assessed as increase in life span at 12.5 mg/kg, ip administered for 9 days relative to untreated control.

The T/C is the result in the treated group divided by that in the control group, in per cent. Consider `ClCCN(CCCl)c1ccccc1`, for which the T/C was 159%.

(Values after ChEMBL document CHEMBL3244115 (1979).)
